# Measurements reported in publication PMC3018526, “Allosteric Interactions between the Myristate- and ATP-Site of the Abl Kinase” (PLoS ONE, 2011).
# The chains behind the UniProt entries cited, without tags or fusion partners. Residues count along the entry.
# UniProt P00519, 46-515: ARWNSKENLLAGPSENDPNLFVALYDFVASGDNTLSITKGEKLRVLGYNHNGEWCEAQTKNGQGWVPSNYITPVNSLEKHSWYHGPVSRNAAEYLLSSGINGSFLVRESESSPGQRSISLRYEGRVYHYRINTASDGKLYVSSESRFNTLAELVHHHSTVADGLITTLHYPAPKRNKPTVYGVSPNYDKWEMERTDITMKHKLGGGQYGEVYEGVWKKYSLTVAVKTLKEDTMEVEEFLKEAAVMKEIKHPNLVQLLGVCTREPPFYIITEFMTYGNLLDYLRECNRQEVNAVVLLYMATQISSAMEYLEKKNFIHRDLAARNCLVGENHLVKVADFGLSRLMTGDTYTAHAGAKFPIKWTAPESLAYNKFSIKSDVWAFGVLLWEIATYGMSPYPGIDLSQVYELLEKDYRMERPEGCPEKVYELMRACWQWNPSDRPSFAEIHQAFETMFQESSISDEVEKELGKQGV
# Target: T1, Abl kinase (c-Abl), wild-type (Homo sapiens, UniProt P00519)
# T1 construct: gene ABL1
# Assay: biochemical
compound,measurement,value
O=C(NCCO)c1cccc(-c2cc(Nc3ccc(OC(F)(F)F)cc3)ncn2)c1 [GNF-5],IC50,220 nM
